Data: ChEMBL document CHEMBL5500327, “Targeting insulin-like growth factor 2 mRNA-binding proteins (IGF2BPs) for the treatment of cancer” (Eur J Med Chem, 2024)

Species on record: Homo sapiens
Assay: Inhibition of full length IMP-1 (unknown origin) binding to fluorescein labeled 93 nucleotide c-Myc mRNA expressed in Escherichia coli BL21 (DE3) pLysS at 5 uM by FAMA method relative to control

inhibition: 72%
SMILES: CC(NC(=O)CSc1nnc2c3cc(Br)ccc3n(C)c2n1)c1ccccc1 (stereo unspecified)
